Calls of active or inactive are those of the source. The rule behind the calls is not given here.
Test system: Histidine protein kinase DivJ (Caulobacter vibrioides)
Assay: Inhibition of recombinant Caulobacter vibrioides N-terminal His6-tagged catalytic domain DivJ (188 to 585 residues) expressed in Escherichia coli BL21 (DE3) assessed as enzyme aggregation at 400 uM after 30 mins by native-PAGE analysis

Oc1cc(O)c(-c2[nH]ncc2-c2ccc3c(c2)OCCO3)cc1Cl
inhibition: inactive

— ChEMBL document CHEMBL4184156, “Repurposing Hsp90 inhibitors as antibiotics targeting histidine kinases” (Bioorg Med Chem Lett, 2017)
